Literature values in publication PMC9657321, “Identification of Boronate-Containing Diarylpyrimidine Derivatives as Novel HIV-1 Non-Nucleoside Reverse Transcriptase Inhibitors” (Molecules, 2022).

Target: recombinant wild-type HIV-1 RT enzyme (Human immunodeficiency virus type 1 group M subtype B, UniProt P03366)
Conditions: read-out: IC50 WT HIV-1 RT; inhibition of biotin-dUTP incorporation by 50%; cited from earlier work

## Cc1cc(C#N)cc(C)c1Oc1nc(Nc2ccc(C#N)cc2)nc(N)c1Br [ETR, etravirine, reference compound]
  IC50: 11 nM
